Laboratory results reported in paper PMC8228537, “Acrylonitrile Derivatives against Trypanosoma cruzi: In Vitro Activity and Programmed Cell Death Study” (Pharmaceuticals, 2021).

Assay: Cytotoxicity, alamarBlue, murine macrophages
Assay type: cell-based
Settings: mouse, J774A.1 murine macrophages, mean ± SD
Procedure: The cytotoxicity was evaluated against murine macrophages (J774A.1) using the same method mentioned in the antiparasitic assay, based on the alamarBlue Cell Viability Reagent®. In a sterile 96-well plate, 10^4 cells per well were added, then, after the complete adhesion, serial dilutions of the 32 compounds, using a deep well plate, and a 10% of alamarBlue® were joined.

CCOP(=O)(/C=C/C#N)OCC [Compound Q18, (E)-Diethyl 2-cyanovinylphosphonate]
CC50 at 24 h: 34.4 ± 1 µM
